Experimental data from patent US20240189287A1, “PERIPHERALLY RESTRICTED CB1 RECEPTOR BLOCKERS AND USES THEREOF” (BIONANOSIM (BNS) LTD, priority 2021, published 2024).

Test system: Salmonella typhimurium (TA98, TA100)
Assay: Mini-AMES assay
Settings: TA100, S9 no

## MNNG
  AMES result (positive/negative): positive
